One protein from PMC10803261, “Structural basis of the human NAIP/NLRC4 inflammasome assembly and pathogen sensing” (Nature Structural & Molecular Biology, 2024) can be followed below.

The series deals with the molecule itself. Put plainly: cryo-EM structure.

Values joined by “and” are separate entries in the source; they are usually repeats but may differ in a detail not shown here. Equal values may be shown once.

B1: full-length human NLRC4 (huNLRC4), N-terminal tags cleaved (natural protein, UniProt Q9NPP4 1-1024, looked up)
chain: MNFIKDNSRALIQRMGMTVIKQITDDLFVWNVLNREEVNIICCEKVEQDAARGIIHMILKKGSESCNLFLKSLKEWNYPLFQDLNGQSLFHQTSEGDLDDLAQDLKDLYHTPSFLNFYPLGEDIDIIFNLKSTFTEPVLWRKDQHHHRVEQLTLNGLLQALQSPCIIEGESGKGKSTLLQRIAMLWGSGKCKALTKFKFVFFLRLSRAQGGLFETLCDQLLDIPGTIRKQTFMAMLLKLRQRVLFLLDGYNEFKPQNCPEIEALIKENHRFKNMVIVTTTTECLRHIRQFGALTAEVGDMTEDSAQALIREVLIKELAEGLLLQIQKSRCLRNLMKTPLFVVITCAIQMGESEFHSHTQTTLFHTFYDLLIQKNKHKHKGVAASDFIRSLDHCGDLALEGVFSHKFDFELQDVSSVNEDVLLTTGLLCKYTAQRFKPKYKFFHKSFQEYTAGRRLSSLLTSHEPEEVTKGNGYLQKMVSISDITSTYSSLLRYTCGSSVEATRAVMKHLAAVYQHGCLLGLSIAKRPLWRQESLQSVKNTTEQEILKAININSFVECGIHLYQESTSKSALSQEFEAFFQGKSLYINSGNIPDYLFDFFEHLPNCASALDFIKLDFYGGAMASWEKAAEDTGGIHMEEAPETYIPSRAVSLFFNWKQEFRTLEVTLRDFSKLNKQDIRYLGKIFSSATSLRLQIKRCAGVAGSLSLVLSTCKNIYSLMVEASPLTIEDERHITSVTNLKTLSIHDLQNQRLPGGLTDSLGNLKNLTKLIMDNIKMNEEDAIKLAEGLKNLKKMCLFHLTHLSDIGEGMDYIVKSLSSEPCDLEEIQLVSCCLSANAVKILAQNLHNLVKLSILDLSENYLEKDGNEALHELIDRMNVLEQLTALMLPWGCDVQGSLSSLLKHLEEVPQLVKLGLKNWRLTDTEIRILGAFFGKNPLKNFQQLNLAGNRVSSDGWLAFMGVFENLKQLVFFDFSTKEFLPDPALVRKLSQVLSKLTFLQEARLVGWQFDDDDLSVITGAFKLVTA
In the case of B1, the “stoichiometry N” value is 11 and 12.
